Experimental data taken from PubChem BioAssay AID1385 (PCMD, 2008).
The list shows a part of the results, in another mix than the full data. Some salts and complexes are drawn in separate pieces, as the source files them; their charges need not balance. Active and inactive are the calls of the source.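 How the source made its calls: active means inhibition above 40% at the single screening dose; inactive means the rest.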

Protein sequences, listed by entry. Tags and fused reporters are not part of them.
UniProt Q06609, whole entry: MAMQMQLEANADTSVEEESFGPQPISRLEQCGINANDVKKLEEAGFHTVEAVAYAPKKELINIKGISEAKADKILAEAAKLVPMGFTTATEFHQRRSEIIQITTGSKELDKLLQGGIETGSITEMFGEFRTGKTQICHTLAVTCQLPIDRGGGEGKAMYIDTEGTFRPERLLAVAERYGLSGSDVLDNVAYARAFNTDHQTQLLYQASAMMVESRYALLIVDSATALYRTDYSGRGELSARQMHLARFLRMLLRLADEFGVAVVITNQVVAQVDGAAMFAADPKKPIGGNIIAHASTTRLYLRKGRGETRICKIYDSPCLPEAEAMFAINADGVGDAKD

The molecules below were run against DNA repair protein RAD51 homolog 1 (Homo sapiens) (UniProt Q06609) (assay: human RAD51 strand exchange inhibitors, primary screen, biochemical, fluorescence (AID 1385;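 further: 0% = DMSO control wells and 100% = blanks with heterologous ssDNA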)). Conditions: hRad51 DNA strand exchange, fluorescence dequenching; at 10 µM; active compounds read high.

Row | SMILES | inhibition
1 | CC(C)c1ccc(OP(C)(=O)Nc2ccc(SC(F)(F)F)cc2)cc1 (stereo unspecified) | inactive: 0.87%
2 | CP(=O)(Nc1ccccc1F)Oc1ccccc1 (stereo unspecified) | inactive: -0.17%
3 | COc1ccc2c(c1O)-c1c(O)c(OC)cc3c1[C@H](C2)[N+](C)(C)CC3.O=[N+]([O-])c1cc([N+](=O)[O-])c([O-])c([N+](=O)[O-])c1[O-] | inactive: -0.58%
4 | O=C(OC1CN2CCC1CC2)c1ccc([N+](=O)[O-])cc1 (stereo unspecified) | inactive: -6.24%
5 | COc1ccc(OP(C)(=O)Nc2ccc(SC(F)(F)F)cc2)cc1 (stereo unspecified) | inactive: 0.14%
6 | CCCCCOc1ccc(NP(C)(=O)Oc2ccc(Cl)cc2Cl)cc1 (stereo unspecified) | inactive: -15.7%
7 | CP(=O)(Nc1ccccc1)Oc1ccc(F)cc1 (stereo unspecified) | inactive: -1.81%
8 | CCN(CC)CCCOC(=O)C(O)(c1ccccc1)C1CCCCC1 (stereo unspecified) | inactive: -9%
9 | CN(C)CCOC(=O)C(O)(c1ccccc1)C1CCCCC1 (stereo unspecified) | inactive: -1.15%
10 | COc1ccc(OP(C)(=O)Nc2cccc(Br)c2)cc1 (stereo unspecified) | inactive: 5.86%
11 | O=[N+]([O-])c1cc([N+](=O)[O-])c(NCC2CCS(=O)(=O)C2)c([N+](=O)[O-])c1 (stereo unspecified) | inactive: 5.67%
12 | Cc1cc(-c2cccc3ccccc23)c(C)cn1.O=[N+]([O-])c1cc([N+](=O)[O-])c(O)c([N+](=O)[O-])c1 | inactive: 5.08%
13 | O=[N+]([O-])c1ccc(OP2(=O)COCCO2)cc1 (stereo unspecified) | inactive: -3.46%
14 | CCOP(C)(=S)SCC(=O)NC(C)(CC)C(=O)O (stereo unspecified) | inactive: -0.52%
15 | CP(=O)(Nc1ccc(SC(F)(F)F)cc1)Oc1ccc(F)cc1 (stereo unspecified) | inactive: -0.63%
16 | Cc1ccccc1NP(C)(=O)Nc1ccccc1C | inactive: 2.01%
17 | CP(=O)(Nc1ccc2c(c1)OCCO2)Oc1ccccc1 (stereo unspecified) | inactive: -1.06%
18 | CP(=O)(Oc1ccccc1)N1CCOC1=O (stereo unspecified) | inactive: 4.33%
19 | CCc1ccc(OP(C)(=O)Nc2cccnc2)cc1 (stereo unspecified) | inactive: 3.13%
20 | COc1ccccc1OP(C)(=O)Nc1c(C)n(C)n(-c2ccccc2)c1=O (stereo unspecified) | inactive: -9.14%
21 | O=C(OCCCN1CCCC1)C(O)(c1ccccc1)C1CCCCC1 (stereo unspecified) | inactive: -21.7%
22 | CCN(CC)CC(O)COC(=O)C(O)(c1ccccc1)C1CCCCC1 (stereo unspecified) | inactive: 3.83%
23 | COc1ccc(OP(C)(=O)Nc2ccc(Br)cc2)cc1 (stereo unspecified) | inactive: -2.51%
24 | CN(C)C(=O)c1c([N+](=O)[O-])cc([N+](=O)[O-])cc1[N+](=O)[O-] | inactive: 7.49%
25 | CP(=O)(Nc1ccc(Cl)cc1)Oc1ccc(F)cc1 (stereo unspecified) | inactive: -2.93%
26 | COc1ccccc1OP(C)(=O)Nc1ccccc1Br (stereo unspecified) | inactive: 2.81%
